Patent US5451518A, “Purified human ceramide-activated protein kinase” (Sloan-Kettering Institute for Cancer Research, priority 1992, dated 1995)

Columns and labels:
EL-4 cells = assay: Ceramide levels in intact EL-4 cells; format: cell-based, murine; settings: maximally effective concentrations (n=5), SMase 1×10^-3 U ml^-1
Method: Time course (FIG. 12A) and dose response (FIG. 12B). Cells were grown to growth arrest (1-1.5×10^6 cells ml^-1) in DME/Ham's F12 medium (1:1, v/v) containing 10% horse serum and for 48 hours [^3 H]choline (1 μCi ml^-1). On the day of an experiment, cells were resuspended back into the same medium at 10×10^6 cells ml^-1 and stimulated with 40 ng ml^-1 IL-1β for the indicated times (FIG. 12A) or for 30 minutes with increasing concentrations of IL-1β (FIG. 12B). Human IL-1β may be obtained using methods well knownto those skilled in the art. Reactions were terminated with CHCl3 :CH3 OH:HCl (100:100:1) containing 10 mM EDTA (82). Lipids in the organic phase extract were dried under N2 and subjected to mild alkaline hydrolysis (0.1M methanolic KOH for 1 hour at 37° C.) to remove glycerophospholipids. Spingomyelin was resolved by thin-layer chromatography (TLC) using CHCl3 :CH3 OH:CH3 COOH:H2 O (60:30:8:5) as solvent, identified by iodine vapor staining, and quantified by liquid scintillation spectrometry. […]
Cells were stimulated as in FIGS. 12A and 12B with IL-1β (40 ng ml^-1) and ceramide contained within the organic phase extract quantified enzymatically using the E. coli diacylglycerol kinase reaction (57). Lipids were resolved by TLC using CHCl3 :CH3 OH:CH3 COOH (65/15/5) as solvent, autoradiographed and quantified by liquid scintillation spectrometry. […]

EL4 cells = settings: 24 h; for IL-2 secretion, agent alone (in words): IL-1β 1-30 ng ml^-1, TPA 1-20 ng ml^-1

| Substance | ceramide response (in words) (EL-4 cells) | IL-2 secretion, agent alone (in words) (EL4 cells) | IL-2 secretion in combination with TPA (in words) (EL4 cells) |
| --- | --- | --- | --- |
| sphingomyelinase | increase in ceramide content quantitatively similar to that induced by maximally effective concentrations of IL-1β | failed to stimulate IL-2 secretion | – |
| phospholipase A2 | – | did not stimulate IL-2 secretion | did not stimulate IL-2 secretion alone or in combination with TPA |
| IL-1β: Human IL-1β | – | did not induce detectable IL-2 secretion | – |
